Biological target: T1, Ku heterodimer (Ku70/Ku80), full length, recombinant human (human, UniProt P12956 1-609; P13010 1-732)
T1 construct: Ku70, human; Ku80, human; also called recombinant Ku; full-length Ku heterodimer; source: insect cells, baculovirus expression system, purified (immobilized metal-chelate chromatography, gel filtration)
Test: pull-down; 50 nM Strep-tagged WRN protein immobilised on Streptavidin Mag Sepharose beads, 50 nM recombinant untagged Ku, 1 h at 4 °C; 20 mM Hepes pH 7.5, 150 mM NaCl, 5% glycerol, 0.5 mM TCEP, 0.05% IGEPAL-CA640; SDS–PAGE, Coomassie/Instant Blue
Conditions: both partners purified

B1: purified full-length recombinant Strep-tagged WRN (natural protein)
chain: not shown
notes: Werner syndrome protein (WRN), human, full length; source: insect cells, baculovirus expression system, purified (Strep-Tactin Superflow Plus cartridge, Superose 6 gel filtration)
- binding result: binds
